Experimental findings from patent US20070059825A1 are described below.

The experiment concerns the target human zalpha11 receptor (full-length, on cells) (human) (UniProt Q9HBE5). In words: cell-based or functional assay.

The substance “mouse zalpha11 Ligand (from UniProt Q9ES17 18-146)” came in with an STAT luciferase reporter response of BaF3/KZ134/Zalpha11 cells, fold over media-only control at 50% conditioned media of 40 fold and a proliferation of BaF3/Zalpha11 cells (Alamar Blue), fold over background at 50% conditioned media of 5 fold.
